Values quoted from earlier work in patent US20100292209A1, “METHODS FOR IDENTIFYING COMPOUNDS THAT MODULATE NEUROTROPHIC FACTOR SIGNALING” (Massachusetts Institute of Technology, priority 2007, published 2010).

Biological target: ErbB1 (Homo sapiens, UniProt P00533)
Conditions: cited from earlier work

SMILES: COc1cc2ncnc(Nc3cccc(Cl)c3)c2cc1OC [AG1478, 4-(3-Chloroanilino-6,7-dimethoxy)-quinazoline]
- selectivity ErbB1 over ErbB2: selectively inhibit ErbB1 over ErbB2
